Results on one compound are retold here after article PMC9607537, “Understanding the Antilymphoma Activity of Annona macroprophyllata Donn and Its Acyclic Terpenoids: In Vivo, In Vitro, and In Silico Studies” (Molecules, 2022).

In this series the test system is Balb/c mice. As for the experimental part: Twenty-four female mice of the Balb/c strain were randomly used to form 8 groups (n = 3). […] The control group was administered with only the vehicle (Tween 80 at 2% in water) and for the compounds, doses of 500 and 1000 mg kg^−1 were administered. […] Subsequently, we sacrificed the animals and extracted the organs (stomach, intestines, spleen, liver, and kidneys) were extracted, reporting the pathological changes, if any.

Consider `CN(Cc1cnc2nc(N)nc(N)c2n1)c1ccc(C(=O)N[C@@H](CCC(=O)O)C(=O)O)cc1` [MTX, methotrexate, reference compound], for which, under “LD50 acute oral toxicity / ED50 antilymphoma activity, female mice”, the “TI Female (therapeutic index, LD50/ED50)” value is 255.75. Moreover, the “TI Male (therapeutic index, LD50/ED50)” value (LD50 acute oral toxicity / ED50 antilymphoma activity, male mice) is reported as 338.42. In addition, for the setting “mice, single oral dose, until end of study (14 days)”, the “Mortality in acute oral toxicity test” value is recorded as “caused death in the animals”.
